Laboratory results taken from article PMC5183552 (Neuropharmacology, 2016).

Protein sequences, listed by entry. Tags and fused reporters are not part of them.
UniProt Q60612, whole entry: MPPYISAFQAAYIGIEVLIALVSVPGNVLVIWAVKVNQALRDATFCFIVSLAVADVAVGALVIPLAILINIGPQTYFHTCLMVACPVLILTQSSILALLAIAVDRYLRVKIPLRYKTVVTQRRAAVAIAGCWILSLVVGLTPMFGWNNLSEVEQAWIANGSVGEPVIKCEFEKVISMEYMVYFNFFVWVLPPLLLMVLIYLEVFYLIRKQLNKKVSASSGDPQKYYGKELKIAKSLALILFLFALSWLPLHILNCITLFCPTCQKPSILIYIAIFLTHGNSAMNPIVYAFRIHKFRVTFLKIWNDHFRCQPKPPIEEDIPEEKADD
UniProt Q60613, whole entry: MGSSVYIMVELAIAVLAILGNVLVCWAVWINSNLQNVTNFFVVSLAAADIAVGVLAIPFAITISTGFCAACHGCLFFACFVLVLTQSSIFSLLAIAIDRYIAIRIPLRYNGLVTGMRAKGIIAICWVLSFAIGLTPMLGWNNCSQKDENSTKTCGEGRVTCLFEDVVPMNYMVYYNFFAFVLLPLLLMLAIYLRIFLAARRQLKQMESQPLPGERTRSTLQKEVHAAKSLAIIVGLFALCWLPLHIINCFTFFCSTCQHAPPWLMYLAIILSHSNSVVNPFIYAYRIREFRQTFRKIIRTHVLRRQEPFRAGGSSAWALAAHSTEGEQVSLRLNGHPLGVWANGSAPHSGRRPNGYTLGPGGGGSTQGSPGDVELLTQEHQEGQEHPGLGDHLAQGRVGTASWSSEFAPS
UniProt P30542, whole entry: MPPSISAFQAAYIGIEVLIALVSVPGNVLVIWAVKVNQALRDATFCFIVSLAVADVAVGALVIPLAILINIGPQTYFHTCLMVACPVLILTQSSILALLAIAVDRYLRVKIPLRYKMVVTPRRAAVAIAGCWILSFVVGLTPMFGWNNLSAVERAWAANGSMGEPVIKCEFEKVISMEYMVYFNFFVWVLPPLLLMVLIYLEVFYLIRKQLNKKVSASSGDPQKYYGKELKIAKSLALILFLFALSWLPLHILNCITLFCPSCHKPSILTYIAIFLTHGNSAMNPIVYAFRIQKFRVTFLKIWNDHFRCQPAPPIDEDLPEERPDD

How the values were obtained:
mouse A1AR = mouse A1AR (Mus musculus, UniProt Q60612); experiment: Radioligand binding, recombinant mouse A1AR in HEK-293 membranes
mouse A2AAR = mouse A2AAR (Mus musculus, UniProt Q60613); experiment: Radioligand binding, recombinant mouse A2AAR in HEK-293 membranes; details: read-out: % inhibition at 10 µM, mouse A2AAR
mouse A3AR = molecular target: T1, mouse A3AR (Mus musculus, UniProt Q61618); experiment: Radioligand binding, recombinant mouse A3AR in HEK-293 membranes
T1 sequence (Q61618 1-319): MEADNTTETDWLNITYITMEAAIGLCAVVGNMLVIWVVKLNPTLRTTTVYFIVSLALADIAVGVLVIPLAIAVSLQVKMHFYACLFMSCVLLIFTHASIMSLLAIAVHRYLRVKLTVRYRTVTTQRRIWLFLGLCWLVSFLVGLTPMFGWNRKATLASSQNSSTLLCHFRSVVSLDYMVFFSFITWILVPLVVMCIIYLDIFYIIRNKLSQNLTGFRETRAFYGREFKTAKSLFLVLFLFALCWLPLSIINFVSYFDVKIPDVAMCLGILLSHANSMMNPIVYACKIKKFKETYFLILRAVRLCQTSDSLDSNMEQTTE

Human A1AR = Human A1AR (Homo sapiens, UniProt P30542); details: read-out: Ki, human A1AR; ref Tosh et al, 2012b; cited from earlier work

Work on `O[C@@H]1[C@@H]2C[C@@H]2C(n2cnc3c(NC(C4CC4)C4CC4)nc(Cl)nc32)[C@@H]1O` (stereo partly drawn) [MRS5474, (1R,2R,3S,5S)-4-(2-chloro-6-((dicyclopropylmethyl)amino)-9H-purin-9-yl)bicyclo[3.1.0]hexane-2,3-diol] yielded a Ki (mouse A1AR) of 3.2 ± 0.05 nM, an inhibition at 10 µM (mouse A2AAR) of 34 ± 9% and a Ki (mouse A3AR) of 1060 ± 251 nM. The Ki (Human A1AR) was 50 nM.
